Source: patent publication US20220002435A1 (IMMUNOME, published 2022)

What was measured:
[1] = target: T1, human EPN1 expressed by human cell lines (human, UniProt Q9Y6I3 1-576); assay: flow cytometry, CAOV3 cells (human tumor line)
T1 construct: Endogenous EPN1 of human tumour and normal cell lines, stained on live cells or on fixed and permeabilised cells, or immunoprecipitated; The cell lines were not engineered to express it; also called surface EPN1; huEPN1
T1 sequence: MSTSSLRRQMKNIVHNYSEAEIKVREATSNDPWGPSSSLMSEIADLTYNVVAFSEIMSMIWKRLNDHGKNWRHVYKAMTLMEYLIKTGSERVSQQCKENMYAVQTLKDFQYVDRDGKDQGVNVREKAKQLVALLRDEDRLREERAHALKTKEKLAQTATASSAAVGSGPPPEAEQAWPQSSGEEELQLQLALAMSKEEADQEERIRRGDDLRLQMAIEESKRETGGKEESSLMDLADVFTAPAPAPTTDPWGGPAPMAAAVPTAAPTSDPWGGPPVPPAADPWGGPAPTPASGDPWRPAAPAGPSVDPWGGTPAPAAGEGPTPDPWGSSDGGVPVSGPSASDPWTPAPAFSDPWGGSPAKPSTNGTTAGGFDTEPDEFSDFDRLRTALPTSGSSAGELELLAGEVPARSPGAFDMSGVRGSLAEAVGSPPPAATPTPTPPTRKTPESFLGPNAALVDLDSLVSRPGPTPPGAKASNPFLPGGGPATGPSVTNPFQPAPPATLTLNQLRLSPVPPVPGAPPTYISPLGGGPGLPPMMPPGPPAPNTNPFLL

[2] = target: T2, recombinant EPN1 (Origene, cat #TP307099) (human, UniProt Q9Y6I3 1-576); assay: SPR, IMM20059 captured at 450 RU on CM5/Protein A, EPN1 in solution, 1:1 model, 25° C., 2nd test
T2 construct: Bought protein; also called Epsin-1; Epsin 1
T2 sequence: T1 sequence
Protocol: The strength of the interaction with recombinant EPN1 was further defined by surface plasmon resonance on a BIAcore2000 at 25° C. in standard running buffer (10 mM HEPES, 150 mM NaCl, 0.005% Tween-20, 0.2 mg/mL BSA, pH 7.4). Protein A surfaces were regenerated between binding cycles with 150 mM phosphoric acid. IMM20059, or an isotype control, were captured on CM5/Protein A sensor surface to generate binding and control surfaces; IMM20059 was captured at approximately 200 and 450 RU, the isotype control was captured to a density of approximately 600 RU. Binding of recombinant EPN1 to each of the three surfaces was tested, in triplicate, using a three-fold dilution series starting with 33.3 nM as the highest concentration. […] Double-subtracted data obtained from the binding measured against the 450 RU IMM20059 surface was fit to a 1:1 binding model.

[3] = target: T1, human EPN1 expressed by human cell lines; assay: flow cytometry, A431 cells (human tumor line)
[4] = target: T1, human EPN1 expressed by human cell lines; assay: flow cytometry, HepG2 cells (human tumor line)
[5] = target: T3, mouse EPN1 expressed by mouse cell lines (mouse, UniProt Q80VP1 1-575); assay: flow cytometry, CT-26 cells (mouse tumor line)
T3 construct: whole, on cells; also called murine EPN1
T3 sequence (looked up): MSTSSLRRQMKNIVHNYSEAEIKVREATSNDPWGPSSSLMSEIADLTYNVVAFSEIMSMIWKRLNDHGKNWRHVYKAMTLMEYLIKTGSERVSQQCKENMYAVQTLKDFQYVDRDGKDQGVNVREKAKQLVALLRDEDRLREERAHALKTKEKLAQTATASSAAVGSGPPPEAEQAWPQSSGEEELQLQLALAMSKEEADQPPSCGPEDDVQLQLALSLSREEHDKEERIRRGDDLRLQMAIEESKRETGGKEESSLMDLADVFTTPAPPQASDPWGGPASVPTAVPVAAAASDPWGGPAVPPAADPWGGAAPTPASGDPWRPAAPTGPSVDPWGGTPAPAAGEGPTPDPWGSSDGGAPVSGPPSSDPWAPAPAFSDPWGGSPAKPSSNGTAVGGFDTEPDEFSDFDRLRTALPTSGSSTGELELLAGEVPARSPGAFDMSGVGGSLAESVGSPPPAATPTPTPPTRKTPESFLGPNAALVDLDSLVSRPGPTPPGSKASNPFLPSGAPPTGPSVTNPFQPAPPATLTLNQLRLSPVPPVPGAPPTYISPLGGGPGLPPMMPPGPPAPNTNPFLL

[6] = target: T1, human EPN1 expressed by human cell lines; assay: flow cytometry, TOV112D cells (human tumor line)
[7] = target: T1, human EPN1 expressed by human cell lines; assay: flow cytometry, NTERA cells (human tumor line)
[8] = target: T1, human EPN1 expressed by human cell lines; assay: flow cytometry, SW480 cells (human tumor line)
[9] = target: T1, human EPN1 expressed by human cell lines; assay: flow cytometry, BJ cells (human normal line)
[10] = target: T1, human EPN1 expressed by human cell lines; assay: flow cytometry, Calu6 cells (human tumor line)
[11] = target: T1, human EPN1 expressed by human cell lines; assay: flow cytometry, CCD841con cells (human normal line)
[12] = target: T1, human EPN1 expressed by human cell lines; assay: flow cytometry, 22Rv1 cells (human tumor line)
[13] = target: T1, human EPN1 expressed by human cell lines; assay: flow cytometry, ES2 cells (human tumor line)
[14] = target: T1, human EPN1 expressed by human cell lines; assay: flow cytometry, ACHN cells (human tumor line)
[15] = target: T1, human EPN1 expressed by human cell lines; assay: flow cytometry, H522 cells (human tumor line)
[16] = target: T1, human EPN1 expressed by human cell lines; assay: flow cytometry, OE21 cells (human tumor line)
[17] = target: T1, human EPN1 expressed by human cell lines; assay: flow cytometry, MRC5 cells (human normal line)

B1: IMM20059 (antibody, human IgG1, kappa, V domains shown)
VH: EVQLVESGGGLVQPGGSLRLSCAASGFTFSIHSLNWVRQAPGKGLEWVSYISSNSTTIYYADSVKGRFTISRDNAKDSLYLQMNSLRDEDTAVYYCARDYYCTGGTCFFLPDLWGRGALVTVSS
VL: EIVLTQSPATLSLSPGERATLSCRASQNISNFLAWYQHKPGQAPRLLIYDASIRATGIPARFSGSGSGTDFSLTISSLEPEDFAVYFCQQRYNWLTFGGGTKVEIKR
MFI (fold mean fluorescence index above isotype control) [1]: 8 fold | Kd [2]: 0.94 nM | koff [2]: 0.000736 s⁻¹ | kon [2]: 787000 M⁻¹ s⁻¹ | MFI (fold mean fluorescence index above isotype control) [3]: 14 fold | MFI (fold mean fluorescence index above isotype control) [4]: 39 fold | MFI (fold mean fluorescence index above isotype control) [5]: 6 fold | MFI (fold mean fluorescence index above isotype control) [6]: 7 fold | MFI (fold mean fluorescence index above isotype control) [7]: 5 fold | MFI (fold mean fluorescence index above isotype control) [8]: 13 fold | MFI (fold mean fluorescence index above isotype control) [9]: 3 fold | MFI (fold mean fluorescence index above isotype control) [10]: 6 fold | MFI (fold mean fluorescence index above isotype control) [11]: 8 fold | MFI (fold mean fluorescence index above isotype control) [12]: 20 fold | MFI (fold mean fluorescence index above isotype control) [13]: 9 fold | MFI (fold mean fluorescence index above isotype control) [14]: 7 fold | MFI (fold mean fluorescence index above isotype control) [15]: 3 fold | MFI (fold mean fluorescence index above isotype control) [16]: 46 fold | MFI (fold mean fluorescence index above isotype control) [17]: 9 fold
